Measured values published in ChEMBL document CHEMBL3885861, “Open TG-GATES”.

Experiments:
Rattus norvegicus [1] = species: Rattus norvegicus; assay: Open TG-GATES - Regimen: Daily Repeat; assay type: toxicity, organism-based, Sprague-Dawley; set-up: regimen Daily Repeat, gender Male, age 6 weeks; details: in vivo, po, tissue Blood, route gavage
Rattus norvegicus [2] = species: Rattus norvegicus; assay: Open TG-GATES - Regimen: Single; assay type: toxicity, organism-based, Sprague-Dawley; set-up: regimen Single, gender Male, age 6 weeks; details: in vivo, po, route gavage; for MCV / PT: tissue Blood
[3] = 0 mg/kg, 72 h, dose level Control, time 3 day
[4] = 0 mg/kg, […], dose level Control, time 7 day
[5] = 0 mg/kg, […], dose level Control, time 14 day
[6] = 0 mg/kg, […], dose level Control, time 28 day
[7] = 3 mg/kg, 72 h, dose level Low, time 3 day
[8] = 3 mg/kg, […], dose level Low, time 7 day
[9] = 3 mg/kg, […], dose level Low, time 14 day
[10] = 3 mg/kg, […], dose level Low, time 28 day
[11] = 10 mg/kg, 72 h, dose level Middle, time 3 day
[12] = 10 mg/kg, […], dose level Middle, time 7 day
[13] = 10 mg/kg, […], dose level Middle, time 14 day
[14] = 10 mg/kg, […], dose level Middle, time 28 day
[15] = 30 mg/kg, 72 h, dose level High, time 3 day
[16] = 30 mg/kg, […], dose level High, time 7 day
[17] = 30 mg/kg, […], dose level High, time 14 day
[18] = 30 mg/kg, […], dose level High, time 28 day
[19] = 0 mg/kg, 3 h, dose level Control
[20] = 0 mg/kg, 6 h, dose level Control
[21] = 0 mg/kg, 9 h, dose level Control
[22] = 0 mg/kg, 24 h, dose level Control
[23] = 10 mg/kg, 3 h, dose level Middle
[24] = 10 mg/kg, 6 h, dose level Middle
[25] = 10 mg/kg, 9 h, dose level Middle
[26] = 30 mg/kg, 24 h, dose level High

O=C(CCCN1CCC(O)(c2ccc(Cl)cc2)CC1)c1ccc(F)cc1 [HALOPERIDOL]
PT (Rattus norvegicus [1]; [3]): 12.2 s
WBC (Rattus norvegicus [1]; [3]): 58.1 x10_2/uL
MCV (Rattus norvegicus [1]; [4]): 63.5 fL
PT (Rattus norvegicus [1]; [4]): 12.2 s
MCV (Rattus norvegicus [1]; [5]): 61.2 fL
PT (Rattus norvegicus [1]; [5]): 12.2 s
WBC (Rattus norvegicus [1]; [5]): 93.4 x10_2/uL
MCV (Rattus norvegicus [1]; [6]): 57.6 fL
PT (Rattus norvegicus [1]; [6]): 12.2 s
WBC (Rattus norvegicus [1]; [6]): 143.6 x10_2/uL
MCV (Rattus norvegicus [1]; [7]): 63.9 fL
PT (Rattus norvegicus [1]; [7]): 12.4 s
WBC (Rattus norvegicus [1]; [7]): 70.6 x10_2/uL
MCV (Rattus norvegicus [1]; [8]): 63.3 fL
PT (Rattus norvegicus [1]; [8]): 11.9 s
WBC (Rattus norvegicus [1]; [8]): 85.9 x10_2/uL
MCV (Rattus norvegicus [1]; [9]): 62.3 fL
PT (Rattus norvegicus [1]; [9]): 12.2 s
WBC (Rattus norvegicus [1]; [9]): 95.4 x10_2/uL
MCV (Rattus norvegicus [1]; [10]): 58.1 fL
PT (Rattus norvegicus [1]; [10]): 12.4 s
WBC (Rattus norvegicus [1]; [10]): 153.8 x10_2/uL
MCV (Rattus norvegicus [1]; [11]): 64.1 fL
PT (Rattus norvegicus [1]; [11]): 12.4 s
WBC (Rattus norvegicus [1]; [11]): 62.4 x10_2/uL
MCV (Rattus norvegicus [1]; [12]): 62.2 fL
PT (Rattus norvegicus [1]; [12]): 12.3 s
WBC (Rattus norvegicus [1]; [12]): 86.7 x10_2/uL
MCV (Rattus norvegicus [1]; [13]): 60.8 fL
PT (Rattus norvegicus [1]; [13]): 12.3 s
WBC (Rattus norvegicus [1]; [13]): 97.7 x10_2/uL
MCV (Rattus norvegicus [1]; [14]): 58.1 fL
WBC (Rattus norvegicus [1]; [14]): 129.8 x10_2/uL
MCV (Rattus norvegicus [1]; [15]): 63 fL
PT (Rattus norvegicus [1]; [15]): 12.6 s
WBC (Rattus norvegicus [1]; [15]): 46.7 x10_2/uL
MCV (Rattus norvegicus [1]; [16]): 63 fL
PT (Rattus norvegicus [1]; [16]): 12.3 s
WBC (Rattus norvegicus [1]; [16]): 76.3 x10_2/uL
MCV (Rattus norvegicus [1]; [17]): 60.1 fL
PT (Rattus norvegicus [1]; [17]): 12.4 s
WBC (Rattus norvegicus [1]; [17]): 97.4 x10_2/uL
MCV (Rattus norvegicus [1]; [18]): 57.7 fL
PT (Rattus norvegicus [1]; [18]): 12.6 s
WBC (Rattus norvegicus [1]; [18]): 159.4 x10_2/uL
MCV (Rattus norvegicus [2]; [19]): 65.2 fL
PT (Rattus norvegicus [2]; [19]): 12.3 s
MCV (Rattus norvegicus [2]; [20]): 65 fL
PT (Rattus norvegicus [2]; [20]): 12.2 s
MCV (Rattus norvegicus [2]; [21]): 66.3 fL
PT (Rattus norvegicus [2]; [21]): 12.4 s
MCV (Rattus norvegicus [2]; [22]): 64.8 fL
PT (Rattus norvegicus [2]; [22]): 12.2 s
MCV (Rattus norvegicus [2]; 3 mg/kg, 3 h, dose level Low): 65.2 fL
MCV (Rattus norvegicus [2]; 3 mg/kg, 6 h, dose level Low): 65.3 fL
PT (Rattus norvegicus [2]; 3 mg/kg, 6 h, dose level Low): 12.2 s
MCV (Rattus norvegicus [2]; 3 mg/kg, 9 h, dose level Low): 65.3 fL
MCV (Rattus norvegicus [2]; 3 mg/kg, 24 h, dose level Low): 68 fL
PT (Rattus norvegicus [2]; 3 mg/kg, 24 h, dose level Low): 12.1 s
MCV (Rattus norvegicus [2]; [23]): 66.3 fL
PT (Rattus norvegicus [2]; [23]): 12.4 s
MCV (Rattus norvegicus [2]; [24]): 65.9 fL
PT (Rattus norvegicus [2]; [24]): 12.3 s
MCV (Rattus norvegicus [2]; [25]): 65.3 fL
PT (Rattus norvegicus [2]; [25]): 12.3 s
PT (Rattus norvegicus [2]; 10 mg/kg, 24 h, dose level Middle): 12.1 s
TG (Rattus norvegicus [2]; 10 mg/kg, 24 h, tissue Plasma, dose level Middle): 124.8 mg/dL
MCV (Rattus norvegicus [2]; 30 mg/kg, 3 h, dose level High): 64.7 fL
PT (Rattus norvegicus [2]; 30 mg/kg, 3 h, dose level High): 12.4 s
MCV (Rattus norvegicus [2]; 30 mg/kg, 6 h, dose level High): 63.7 fL
PT (Rattus norvegicus [2]; 30 mg/kg, 6 h, dose level High): 12.1 s
MCV (Rattus norvegicus [2]; 30 mg/kg, 9 h, dose level High): 65.4 fL
PT (Rattus norvegicus [2]; 30 mg/kg, 9 h, dose level High): 12.2 s
MCV (Rattus norvegicus [2]; [26]): 63.4 fL
PT (Rattus norvegicus [2]; [26]): 12.3 s
